Measured values taken from US20050260737A1, “Novel lipase gene from Bacillus sphaericus 205y” (priority 2004, published 2005).

Test system: isolate 205y
Assay: Growth of isolate 205y in different organic solvents and concentrations
Assay type: cell-based, Bacillus sphaericus 205y
Design: Growth of isolate 205y: key to the marks not given beside the values
Conditions: for Growth of isolate 205y: growth visually determined
Protocol: The Bacillus sphaericus 205y culture could be obtained from Enzyme and Microbial Technology Research Department of Biochemistry and Microbiology, Faculty of Science and Environmental Studies, University Putra Malaysia. One gram of soil is resuspended in 10 ml basal mineral […] supplemented with selected hydrocarbon (0.1% v/v). The basal media contained (w/v) K2HPO4 0.5%, NH4Cl (1.0%), Na2SO4 (2%), KNO3 (2%), MgSO4.7H2O (0.2%).
Selected hydrocarbons would either be benzene, toluene or mixture of both as their sole carbon and energy source. Pure isolates were prescreened in media spiked with 1% v/v hydrocarbon. Isolates were grouped into groups of good, moderate, acceptable and negative, based on the turbidity of the media (Inoue et al., 1989). Non-inoculated controls were also used to ensure that the turbidity is due to growth.

Compound: CCc1ccccc1 [Ethylbenzene]
- Growth of 205y in solvent (in words): good growth
- Growth of isolate 205y (Hydrocarbon 1% (v/v)): ++
- Growth of isolate 205y (Hydrocarbon 5% (v/v)): ++
- Growth of isolate 205y (Hydrocarbon 10% (v/v)): +++
- Growth of isolate 205y (Hydrocarbon 25% (v/v)): ++
- Growth of isolate 205y (Hydrocarbon 50% (v/v)): ++
- Growth of isolate 205y (Hydrocarbon 75% (v/v)): ++
